Numbers after ± are expanded uncertainties.
Settings: 308.5 K; 101.33 kPa; Liquid

| SMILES | mass density [kg/m3] |
| --- | --- |
| CCCCOCCCC [dibutyl ether] | 755.22 ± 0.64 |
| OCCOCCOCCOCCO [tetraethylene glycol] | 1112.32 ± 0.64 |

Reference: the NIST ThermoML archive (doi:10.1021/je0504212)
